Test results taken from PubChem BioAssay AID651953 (The Scripps Research Institute Molecular Screening Center, 2012).
Only a part is listed here, and it is no random draw. Calls of active or inactive are those of the source. Cut-off read from the data, not from the text of the source: active = activation above about 12%; inactive = the rest.

Experiment: nonspecific calcium signal increase, Ga16 cells – cell-based, fluorescence, counter-screen for TAAR1 antagonist project (AID 651953);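 note: 0% = vehicle wells and 100% = saturating stimulus response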
Settings: Ga16-expressing cells, agonist counterscreen, at 3 µM, active compounds read high

| Compound | activation |
| --- | --- |
| O=c1[nH]c2ccccc2n1C1CCN(C(c2ccnc3ccccc23)c2nnnn2C2CCCCC2)CC1 (stereo not drawn) | inactive: 10.6% |
| COc1cccc(C(c2nnnn2C2CCCC2)N2CCC(n3c(=O)[nH]c4ccccc43)CC2)c1OC (stereo not drawn) | inactive: 9.74% |
| O=c1[nH]c2ccccc2n1C1CCN(C(c2cccs2)c2nnnn2C2CCCCC2)CC1 (stereo not drawn) | active: 12.4% |
| CCCCn1nnnc1C(c1ccccc1)N1CCC(n2c(=O)[nH]c3ccccc32)CC1 (stereo not drawn) | inactive: 6.61% |
| O=c1[nH]c2ccccc2n1C1CCN(C(c2cccs2)c2nnnn2C2CCCC2)CC1 (stereo not drawn) | inactive: 11.3% |
| O=c1[nH]c2ccccc2n1C1CCN(C(c2ccccc2)c2nnnn2C2CCCC2)CC1 (stereo not drawn) | inactive: 5.67% |
| CCCCn1nnnc1C(c1cc2ccccc2o1)N1CCC(n2c(=O)[nH]c3ccccc32)CC1 (stereo not drawn) | inactive: 7.07% |
| O=c1[nH]c2ccccc2n1C1CCN(C(c2ccccc2)c2nnnn2C2CCCCC2)CC1 (stereo not drawn) | inactive: 9.93% |
